The target of this test is SARS-CoV-2 PL^pro (Severe acute respiratory syndrome coronavirus 2, UniProt P0DTD1). The test is described as follows: biochemical. Conditions: read-out: PL^pro % inhibition at 10 µM.

Each structure is given as a SMILES string.

Our source for the inhibition values is paper PMC8225628, “Bispecific repurposed medicines targeting the viral and immunological arms of COVID-19” (Scientific Reports, 2021).

In general, inhibition refers to the relative decrease from the control value, in per cent.

Regarding `COc1cc(O)c(CC=C(C)C)c(O)c1C(=O)/C=C/c1ccc(O)cc1` [xanthohumol], the inhibition at 10 µM worked out at 11%.
